Values quoted from earlier work as cited in patent US9422521B2, “Differentiation of pluripotent stem cells with a kinase inhibitor or PGI2” (ES Cell International Pte Ltd., priority 2005, dated 2016).

Test system: mouse ES cells
Settings: cited from earlier work

## O=[N+]([O-])c1ccc(-c2nc(-c3ccncc3)c(-c3ccc(F)cc3)[nH]2)cc1 [PD169316]
  cardiomyogenesis in mouse ES cells: prevented cardiomyogenesis
  neurogenesis in mouse ES cells: induced neurogenesis
